pIC50: −log10 of the molar value.

Protein sequences, listed by entry. Tags and fused reporters are not part of them. Lines headed by an entry give the natural chain unless they say otherwise; changes in a name come on top.
UniProt P22303: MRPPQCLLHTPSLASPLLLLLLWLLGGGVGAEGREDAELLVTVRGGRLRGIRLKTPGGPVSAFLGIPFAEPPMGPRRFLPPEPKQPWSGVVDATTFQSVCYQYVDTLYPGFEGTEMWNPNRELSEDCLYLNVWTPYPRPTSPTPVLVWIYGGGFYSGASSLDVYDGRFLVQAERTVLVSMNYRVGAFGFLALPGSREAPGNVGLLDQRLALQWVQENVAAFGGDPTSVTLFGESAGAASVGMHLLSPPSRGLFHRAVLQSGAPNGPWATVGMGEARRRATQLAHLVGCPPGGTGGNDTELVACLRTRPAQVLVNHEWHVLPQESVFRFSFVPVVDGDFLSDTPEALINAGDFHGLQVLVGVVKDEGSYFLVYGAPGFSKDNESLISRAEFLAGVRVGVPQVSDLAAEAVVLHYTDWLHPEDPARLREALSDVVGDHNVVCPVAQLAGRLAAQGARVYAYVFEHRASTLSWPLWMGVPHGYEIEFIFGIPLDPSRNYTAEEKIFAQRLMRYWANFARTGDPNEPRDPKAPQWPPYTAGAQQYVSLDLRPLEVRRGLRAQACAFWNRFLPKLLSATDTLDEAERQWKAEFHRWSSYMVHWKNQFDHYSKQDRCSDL

A word on the pIC50: it is the negative decadic logarithm of the IC50, by convention in mol/L. Low values mean a high IC50, high ones a low IC50.

The assay addresses Acetylcholinesterase (Homo sapiens, UniProt P22303).
As for `CCCCCCCCNC(=O)Oc1ccc2c(c1)[C@]1(C)CCN(C)C1N2C` (stereo partly drawn), the pIC50 is 6.96.
With `C=CC[N+](C)(C)c1ccc(CCC(=O)CCc2ccc([N+](C)(C)CC=C)cc2)cc1` the figure was 8.10.
With `COc1ccc(NC(=O)Oc2ccc3c(c2)[C@]2(C)CCN(C)C2N3C)cc1` (stereo partly drawn) the figure was 5.77.

Values taken from ChEMBL document CHEMBL1129057, “Structure-based alignment and comparative molecular field analysis of acetylcholinesterase inhibitors” (J Med Chem, 1996).
